How the values were obtained:
[1] = tested on: Guinea-pig trachea; assay: Isolated guinea-pig trachea (relaxation of carbacholine-contracted tracheal muscle); conditions: Table II; molar potency ratio from EC50 values (50% maximum response); theophylline = 1 by definition; >1 more potent than theophylline; carbacholine 0.1 μg/ml
Method: Guinea-pigs of both sexes, weighing between 150 and 250 g, were killed by a blow on the head and bled. The trachea was removed and cut spirally yielding one or two preparations. The tracheal preparations were mounted in organ baths containing Krebs solution maintained at 37° C. and bubbled with carbogen (95% O2 +5% CO2). Isometric tension reflecting the activity in circular tracheal muscle was recorded by means of a force displacement transducer. Initial tension was set at 0.5 g which was the approximate basal tension kept during the experiment. Evaluation of relaxant effects was done when the preparations had contracted to a stable tension by the addition of carbacholine 0.1 μg/ml to the bath. […] After washing out the drugs the trachea resumed its basal tone and was left to stabilize for at least 15 min. before the next drug evaluation was performed. Between two evaluations of theophylline the effect of the test drug was examined and its EC50 value was compared with the mean of the previous and following EC50 values of theophylline.
The left column lists molar potency ratios for bronchodilatation between theophylline and various xanthine compounds. […]
The guinea-pig trachea were prepared as was discribed previously. Isomeric tension reflecting the activity in circular tracheal muscle was recorded by a force displacement transducer.

[2] = mouse, in vivo, iv
Excerpt: (§1) The left column lists molar potency ratios for bronchodilatation between theophylline and various xanthine compounds. Toxic symptoms occuring before death in mice receiving constant rate infusion of drug i.v. are accounted for in the middle column. […] The far right column indicates cardiotonic activity as positive chronotropic potency.

[3] = tested on: Guinea-pig heart; assay: Isolated guinea-pig hearts (Langendorff), chronotropic potency; conditions: Table II; positive chronotropic potency; theophylline = 1
Method: From the bled guinea-pigs, the hearts were immediately removed and perfused with oxygenated Krebs solution at 37° according to Langendorff. The heart was mounted in a thermostatically controlled organ bath (25 ml) containing Krebs solution. A saline-filled, open-end polyethylene catheter was inserted into the right ventricle through the pulmonary artery. The catheter was fixed to the pulmonary artery by a ligature just above the valvular plane. It was connected to a pressure transducer (P23 AC), making it possible to record changes in intraventricular pressure. From these, the contraction frequency was obtained. Drugs were given as single bolus injections into the perfusion solution.
as §1

For `Cc1nc2c([nH]1)c(=O)[nH]c(=O)n2CC(C)C` [D 4169, 3,7-dihydro-8-methyl-3-(2-methylpropyl)-1H-purine-2,6-dione], the “Guinea-Pig trachea Potency rations of theophylline” value [1] was 10.3, the “Convulsion test mice i.v., Death” value [2] was 488.2 ± 8.1 mg/kg i.v and the “Guinea-Pig heart Potency ratios of theophylline, Chronotrop” value [3] was 4.

— US4548818A, “Composition and methods for the treatment of chronic obstructive airway disease and cardiac disease using 3-alkylxanthines” (priority 1978, dated 1985)
